Data: publication PMC8757610, “Design, synthesis, and biological evaluation of arylmethylpiperidines as Kv1.5 potassium channel inhibitors” (Journal of Enzyme Inhibition and Medicinal Chemistry, 2022)

Chains of the proteins cited; added tags and fusions are not shown.
UniProt P22460, whole entry: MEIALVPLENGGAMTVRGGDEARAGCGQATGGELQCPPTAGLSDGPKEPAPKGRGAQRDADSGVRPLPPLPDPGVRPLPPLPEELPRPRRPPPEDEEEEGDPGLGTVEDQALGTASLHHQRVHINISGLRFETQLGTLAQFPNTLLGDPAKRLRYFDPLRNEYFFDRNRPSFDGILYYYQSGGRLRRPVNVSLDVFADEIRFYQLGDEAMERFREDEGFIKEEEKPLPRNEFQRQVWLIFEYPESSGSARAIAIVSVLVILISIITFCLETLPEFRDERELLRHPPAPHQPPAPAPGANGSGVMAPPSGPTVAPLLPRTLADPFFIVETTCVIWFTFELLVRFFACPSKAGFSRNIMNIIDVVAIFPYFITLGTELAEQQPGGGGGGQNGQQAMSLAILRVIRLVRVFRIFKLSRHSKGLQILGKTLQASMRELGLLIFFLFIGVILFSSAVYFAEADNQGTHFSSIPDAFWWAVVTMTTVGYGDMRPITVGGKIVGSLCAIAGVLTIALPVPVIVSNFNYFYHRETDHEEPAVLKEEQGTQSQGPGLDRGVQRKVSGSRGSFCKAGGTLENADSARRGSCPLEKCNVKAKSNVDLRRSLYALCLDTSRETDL

Biological target: hKv1.5 potassium channel (Homo sapiens, UniProt P22460)
Experiment: Whole-cell patch clamp assay on HEK 293 cells stably expressing hKv1.5
Details: read-out: hKv1.5 IC50, HEK 293 cells expressing hKv1.5, 25 °C, mean ± SD

`COc1ccc(NC2CCN(Cc3nc4ccccc4o3)CC2)cc1` was tested, and the IC50 was 1570 nM.

Some compounds may have been tested in ways that are not shown here.
